From patent US9951046B2, “TRPA1 modulators” (Algomedix, Inc., priority 2014, dated 2018)

Amino acid sequences for entries named in this document (tags omitted).
UniProt O75762, whole entry: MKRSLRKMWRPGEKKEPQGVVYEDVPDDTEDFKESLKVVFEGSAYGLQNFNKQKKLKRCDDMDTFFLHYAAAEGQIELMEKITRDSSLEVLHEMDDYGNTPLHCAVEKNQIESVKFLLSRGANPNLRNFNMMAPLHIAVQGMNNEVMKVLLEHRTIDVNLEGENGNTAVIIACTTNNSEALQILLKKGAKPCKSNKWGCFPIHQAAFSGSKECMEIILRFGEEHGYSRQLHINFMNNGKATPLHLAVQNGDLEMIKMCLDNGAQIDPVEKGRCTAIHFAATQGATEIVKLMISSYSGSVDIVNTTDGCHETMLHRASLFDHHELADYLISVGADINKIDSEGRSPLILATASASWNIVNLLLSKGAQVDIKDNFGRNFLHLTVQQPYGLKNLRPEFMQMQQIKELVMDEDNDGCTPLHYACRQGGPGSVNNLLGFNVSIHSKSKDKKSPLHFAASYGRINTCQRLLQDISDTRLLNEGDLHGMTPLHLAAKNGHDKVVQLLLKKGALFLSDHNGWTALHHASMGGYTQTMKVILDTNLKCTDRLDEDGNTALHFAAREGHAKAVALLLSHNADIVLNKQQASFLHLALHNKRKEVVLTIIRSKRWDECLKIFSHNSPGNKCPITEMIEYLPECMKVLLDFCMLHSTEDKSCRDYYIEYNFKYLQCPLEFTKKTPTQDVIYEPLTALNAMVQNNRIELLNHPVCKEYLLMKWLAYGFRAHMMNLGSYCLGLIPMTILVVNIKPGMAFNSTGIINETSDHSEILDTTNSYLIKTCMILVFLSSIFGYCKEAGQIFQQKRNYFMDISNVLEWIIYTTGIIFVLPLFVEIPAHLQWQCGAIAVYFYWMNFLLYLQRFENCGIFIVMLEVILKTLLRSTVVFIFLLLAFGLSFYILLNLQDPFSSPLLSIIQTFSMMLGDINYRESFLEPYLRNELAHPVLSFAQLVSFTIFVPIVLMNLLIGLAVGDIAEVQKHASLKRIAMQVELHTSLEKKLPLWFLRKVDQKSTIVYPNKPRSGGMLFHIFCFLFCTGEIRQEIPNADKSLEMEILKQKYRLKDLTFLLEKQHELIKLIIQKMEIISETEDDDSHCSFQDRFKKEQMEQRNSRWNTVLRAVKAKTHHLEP

Biological target: human TRPA1 (Homo sapiens, UniProt O75762)
Assay: Cell-based functional intracellular calcium ([Ca2+]i) assay, Fluo-4/Fluo-8, FlexStation, challenge with reference TRPA1 agonist (FFA, AITC or 4-HNE)
Conditions: read-out: human TRPA1-HEK Activity; HEK293 cells expressing human TRPA1; IC50 class after addition of reference TRPA1 agonist (FFA, AITC or 4-HNE)

For `O=C(c1cc(-c2cccnc2)n(-c2ccc(F)c(C(F)(F)F)c2)n1)N1CCC2(CC1)C(=O)NCN2c1ccc(F)cc1`, the IC50 was 1 to 5000 nM.
With `O=C(c1cc(-c2cccnc2)n(-c2cc(F)c(F)c(F)c2)n1)N1CCC(n2c(=S)[nH]c3ccc(F)c(F)c32)CC1` the IC50 was 1 to 5000 nM.
